# Yeast mating assay B: variants of the scFv Ab-14

Source: Li et al. 2023 (doi:10.1038/s41467-023-39022-2), MIT Lincoln Laboratory and A-Alpha Bio; data file from the FLAb repository.

Antigen: PDVDLGDISGINAS, a 14-residue peptide of the SARS-CoV-2 spike HR2 region.

Each scFv is VH, a (GGGGS)3 linker, VL, as in the parent Ab-14, and differs from it in the CDRs of the light chain only.
VH: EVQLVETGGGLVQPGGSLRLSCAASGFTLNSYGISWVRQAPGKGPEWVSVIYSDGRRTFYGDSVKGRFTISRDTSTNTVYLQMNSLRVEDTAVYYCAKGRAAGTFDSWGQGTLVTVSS
VL: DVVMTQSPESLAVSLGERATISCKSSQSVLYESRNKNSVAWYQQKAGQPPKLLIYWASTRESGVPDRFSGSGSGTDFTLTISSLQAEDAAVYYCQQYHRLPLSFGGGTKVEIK

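The starting antibody came from a phage panning campaign against this peptide. These sequences belong to a second round, designed from the earlier measurements on random variants of the parent. Group labels follow the data file (Ctrl: baseline library sampled from a position-specific scoring matrix, with some repeated check sequences; Rand: our label for a block that the file lists under HC and that is probably the random mutants of the ten best first-round binders; En: ensemble of fine-tuned language models; GP: Gaussian process model; HC: hill climbing; Gen: genetic algorithm; Gibbs: Gibbs sampling; a sequence that several methods proposed may carry one label only). In AlphaSeq, yeast of one mating type display the scFv and yeast of the other type display the target. The frequency of each diploid, read from paired DNA barcodes, reflects how well the two displayed proteins bind. A regression on co-assayed BCL2-family reference pairs converts the normalised counts of each replicate to an apparent Kd. Each pool was mated in six replicate cultures.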

Variants are written as CDR1, CDR2 and CDR3 of the light chain (limits as in the source). Parent: KSSQSVLYESRNKNSVA, WASTRES, QQYHRLPLS. Numbers give log10(Kd / nM), so 0 is 1 nM and 3 is 1 µM. Smaller is tighter. A mean of the replicates is given; it leaves out those without a signal. A pair that was not seen in any replicate is written "not detected"; this usually means weak binding, but a binder can also be missed. The parent sequence was in this pool as ten entries: three were never detected, three once, and four in most replicates, with averages from 0.34 to 2.37. Background: pairings of all light chain designs with three empty control strains gave a value in 4% of cases (median 2.64, 5th percentile 1.59). Values in that range, when seen in few replicates, are hard to tell from nonspecific mating. The authors averaged sequences with at least three values out of six and counted those with two or fewer as poor binders. A sequence measured in both rounds can read differently, since the two assays cover different ranges.

| log10 Kd (nM), mean | seen in | CDR-L1 | CDR-L2 | CDR-L3 | group |
|---|---|---|---|---|---|
| 2.54 | 1/6 | KVSQSYLGESRNKNSVA | QASTRES | TQYHRLPLS | Ctrl |
| 0.53 | 6/6 | KFSGMDLYESRNGNSVA | DASTRSS | QQYHRLPLS | GP_Gibbs |
| 1.41 | 6/6 | MISQILNMGQFAINSVA | QASIRCN | QQYDRLPLA | En_Gen |
| 0.16 | 6/6 | KLSMMVDYMSATHSSVA | QTSTREE | QQYHRLPLS | En_HC |
| 1.35 | 6/6 | TISTSALYESVNKNSVA | ELTTRGS | QQYERLPLS | En_HC |
| -0.12 | 6/6 | KSSQSELYESRNFNSVA | NASTRES | QQYHRLPLS | GP_Gen |
| 2.35 | 1/6 | MISQIYNMGQFAINSVA | QASTRNA | QQYDRLPLT | En_Gen |
| -0.21 | 6/6 | KIGQGVLYESRNTNSVA | GASTRES | QQYHRLPLS | GP_HC |
| -0.11 | 6/6 | KLQQSVDYESRNKNSVA | NASTREQ | QQYHQLPLS | GP_Gibbs |
| 0.03 | 6/6 | KSSDSELYESRNKNSVA | EASTRES | QQYHRLPLS | GP_HC |
| -0.07 | 6/6 | KLSQSVLYESRNKNNVA | HASTRMS | QQYHRLPLS | GP_Gen |
| 0.32 | 6/6 | KLWMSVLGESRNKNAVA | SASTREQ | QQYHRLPLS | GP_Gibbs |
| 0.30 | 6/6 | KSSQSVLYESRNKNSVA | AGSTRES | QQYHRLPLS | Ctrl |
| -0.08 | 6/6 | KSSQSVSYESRNKNSVA | SASTRPS | QQYMRLPLS | Ctrl |
| 0.22 | 6/6 | KLSQSVLYEERMKNSVA | NASQRLS | QQYHRLPLS | GP_Gen |
| 0.26 | 6/6 | KCSQSVLYEWRNKNSVA | DASTRES | QQYHRLPLS | GP_HC |
| 0.03 | 6/6 | KMAQSVEVLSRNKNSVA | NASTREM | QQYHRLPLS | GP_Gibbs |
| 0.13 | 6/6 | HSSPSVTYESRNKNSVA | NASTRES | QQYHRLPLS | GP_HC |
| -0.20 | 6/6 | KLPQSQLYESRMKNSVA | NASTRES | QQYHRLPLS | GP_Gen |
| 1.10 | 6/6 | RLRELNFESGNARNNIA | DAHIHEV | QQYSWLPLC | En_Gibbs |
| 1.12 | 6/6 | KLSQITGHSLMSKNNVA | EMETREN | QQYDRLPLS | En_Gen |
| -0.07 | 6/6 | KLEQSVEYESRNKNSVA | NASTRES | QQYHRLPLS | GP_Gen |
| 0.12 | 6/6 | KLSQDVCYGDRMKNSVA | NASTREQ | QQYHRLPLS | GP_Gibbs |
| not detected | 0/6 | KSSQSVLYESRNLNSVA | WASTRES | QQYHRLPLR | Ctrl |
| 0.90 | 6/6 | RVSSMLMAGGIIYNNIA | GTKVLER | QQYMRLPLM | En_Gibbs |
| not detected | 0/6 | HITYGMMVHGRHMESIA | QAEERAK | QQYDRLPLA | En_Gen |
| 0.02 | 6/6 | KFSQSVLYESRVKNSVA | NASQRES | QQYHRLPLS | GP_Gen |
| not detected | 0/6 | IVSQLMLWGLHYKNSIA | EAVTRLN | QQYDRLPLF | En_Gen |
| -0.20 | 6/6 | KLSQSVLYESRNKNSVA | NASTRES | QQYHRLPLG | GP_Gen |
| 0.20 | 6/6 | KISQMSTIESISHNSVA | QTSTREK | QQYDRLPLS | En_HC |
| 2.66 | 5/6 | KSSQSVLYDSRKKNSVA | WASTRVS | QQYHRLPLS | Ctrl |
| 2.86 | 1/6 | KSIQSVLYESRNKNSVA | WVSTRVS | QQYHRLPLS | Ctrl |
| 0.94 | 6/6 | HMSMLTLGGMRQKNSVA | QMTTREN | QQYDRLPLT | En_Gen |
| -0.25 | 6/6 | KVLQSVLQESRNSNSVA | NASTREL | QQYHRLPLS | GP_Gibbs |
| 0.09 | 6/6 | KLEQQWLYESRNKNSVA | NASQRES | QQYHRLPLS | GP_Gen |
| 0.22 | 6/6 | HLGDTVMQGSYYRNSVA | QESTRAD | QQYHRLPLS | En_HC |
| 0.74 | 6/6 | NLVGRVPDNYQERNAIA | DMHCRAG | QQYERLPLS | En_Gibbs |
| 0.64 | 6/6 | KHSQSVDYESRNKAQVA | DASTRMS | QQYHRLPLS | GP_Gibbs |
| not detected | 0/6 | KVSQSVLYESRNKNSVA | WASTRER | QQYHREPLS | Ctrl |
| 0.77 | 6/6 | MISQLYNMGQFAINSVA | QASERYN | QQYDRLPLT | En_Gen |
| 1.76 | 6/6 | KQSQSVLYESRNKNSVG | DASTRWS | QQYHRLPLS | Rand |
| 1.50 | 6/6 | KSSQSVWYESTNKNSVA | WASTRES | QQYHRLPLS | Ctrl |
| 0.49 | 6/6 | SISGFMKSLSAHINSVA | DMTNRES | QQYERLPLS | En_Gen |
| 0.54 | 6/6 | KSHQGVLYEFRNKNSIA | DASTRES | QQYHRLPLS | Ctrl |
| 0.46 | 6/6 | KLSQSELYESRNKNSVA | NASQRWS | QQYHRLPLS | GP_Gen |
| 0.82 | 6/6 | ALELFEMQMMKDINSIA | NTEYKTN | QQYVRLPFS | En_Gibbs |
| -0.09 | 6/6 | KFSQSVLYESRTKNSVA | NATTRET | QQYHRLPLS | GP_HC |
| 1.74 | 6/6 | QLLMATMQGQYNRNSVA | HAVTRND | QSYHRLPLS | En_HC |
| 0.33 | 6/6 | YLSQSVLYESRNKNSVA | EASTRES | QQYHRLPLS | GP_Gen |
| 2.12 | 1/6 | KNSQSCPPESRNKNSVA | WASTRES | QQYHRLPLS | Ctrl |
| 0.74 | 1/6 | KVSQSVLYEERNKNSVA | EASQRES | QQYHRLPLS | GP_Gen |
| 0.47 | 6/6 | KSSQSVLYEDKNVNSVA | HASQRCS | QQYHRLPLS | GP_Gibbs |
| 1.36 | 6/6 | KLMTSDLYESRMVNAVA | EASTRMD | QQYHRLPLS | GP_Gibbs |

For reference, 4 entries of the list once more:

CDR-L1	CDR-L2	CDR-L3	group	log10 Kd (nM), mean	seen in
KVSQSVLYESRNKNSVA	WASTRER	QQYHREPLS	Ctrl	not detected	0/6
KLEQQWLYESRNKNSVA	NASQRES	QQYHRLPLS	GP_Gen	0.09	6/6
KLWMSVLGESRNKNAVA	SASTREQ	QQYHRLPLS	GP_Gibbs	0.32	6/6
KSSQSVLYESRNKNSVA	AGSTRES	QQYHRLPLS	Ctrl	0.30	6/6